{"source": "patent US20260217686A1", "about": "“N-Myristoyltransferase Inhibitors And Methods Of Use” (Seattle Children's Hospital (d/b/a Seattle Children's …, priority 2022, published 2026)", "molecular_target": "T1, PvNMT (Plasmodium vivax, UniProt A5K1A2)", "T1 construct": "6xHis + PreScission site (MGSSHHHHHHSAALEVLFQ/GP; Gly-Pro stays on the protein after cleavage) (N, cleaved yes); host or cells: E. coli Rosetta 2 (DE3) pRARE", "assay_type": "biochemical", "settings": "Table 1; enzyme selectivity calculated as HsNMT IC50/PvNMT IC50", "excerpt": "NMT activity was indirectly measured through the detection of free CoA by the thiol-reactive probe 7-diethylamino-3-(4′-maleimidylphenyl)-4-methylcoumarin (CPM). […] .\nThis study aimed to identify NMT is with high selectivity for the P. vivax enzyme compared with human NMTs and high potency against the different stages of the P. vivax parasite. For this purpose, a structure-guided approach was applied using previously reported NMT inhibitors as scaffolds to develop a new generation of PvNMT-targeting compounds. The NMT activity of these inhibitors was first measured using biochemical assays through the detection of free CoA by the thiol-reactive probe 7-diethylamino-3-(4′-maleimidylphenyl)-4-methylcoumarin (CPM). Their antiparasitic activity were further evaluated by measuring blood-stage parasite load and inhibition of P. vivax liver-stage schizont and hypnozoite infection. […] Cytotoxicity was assessed in the human hepatoma HepG2 cell line. […]\nTo measure the activity of the purified PvNMT an assay was adapted from the literature. […] Fluorescent readings were taken on a Spectra M2 plate reader (Molecular Devices) with excitation at 385 nm and emission at 485 nm. Fluorescent intensity was measured continuously in one-minute intervals for 45 minutes. […] Fluorescence signal was obtained continuously for 45 min. […] IC50 calculations were calculated using Prism (GraphPad Software, Inc).", "data": [{"smiles": "Cc1nn(C)c(C)c1CCOc1cccnc1-c1cccc(N2CCNCC2)c1", "note": "[Compound 12b, 1-(3-(3-(2-(1,3,5-trimethyl-1H-pyrazol-4-yl)ethoxy)pyridin-2-yl)phenyl)piperazine]", "values": [{"measurement": "SI**", "result": 259.2}]}]}
